SMILES strings stand for the structures.

The nature of this data set: in vivo. As to conditions: mouse, oral, deaths within 7 days, Probit method, n=5 per group. The method, then:
Male ddY mice 5 weeks old were used with 5 animals at a group. The compounds were administrated orally with each dosage. LD50 was determined by the Probit method from dead animals dying within 7 days.

As a reminder, the LD50 is the dose at which mortality reaches 50%. The low end stands for greater toxicity, the high end for lower toxicity. In the case of `CCc1ccc(C(=O)C(C)CN2CCCC2)cc1` (stereo not shown) [Compound 2, 4'-Ethyl-2-methyl-3-pyrrolidinopropiophenone], the LD50 at 168 h came to 425 mg/kg.

The values are drawn from US4638009A, “Derivatives of 3-pyrrolidinopropiophenone and a process for preparation thereof” (Hokuriku Pharmaceutical Co., Ltd., priority 1984, dated 1987).
